Source: publication PMC8251916 (Chemistry (Weinheim an Der Bergstrasse, Germany), 2021)

Tests used:
L. major = assay: Leishmaniacidal activity, MTT assay; assay type: cell-based; conditions: selectivity index from EC50 values
Method: (§1) Doxorubicin, suramin and miltefosine were used as control compounds.[ ^6b , ^9 ] After incubation with varied concentrations of the compounds for 72 h, cell viability was measured using either an alamarBlue™ assay (for MRC5, HeLa and T. brucei) or MTT assay (for L. major). Absolute EC50 values and selectivity indexes were then calculated from dose‐response curves (Table 2 and S14).
Invitrogen). L. major promastigotes (MHOM/IL/80/Friedlin) were cultured at 28 °C, 5 % CO2 in modified RPMI-1640 medium (Thermo Fisher Scientific, Waltham, MA, USA) with 10% hiFBS. Parasites were split every other day and maintained in their experimental growth phase (below 2 million parasites per mL). […]
The results are expressed as the concentration of compound that reduces cell growth by 50 % versus untreated control cells (EC50) using GraphPad Prism 7 (GraphPad Software) to fit the data to a sigmoidal curve. […]
The leishmaniacidal activity of the compounds on promastigotes L. major (MHOM/IL/80/Friedlin) was carried out as previously described.[S14] […] Cell proliferation was determined using an MTT-based assay (Sigma-Aldrich). […] The plate was then incubated at 37°C for 4-16 hrs and analysed using an Infinite F200 plate reader (TECAN Austria, GmbH). The absorbance was measured […]
at a wavelength of 540 nm and the EC50 was calculated as described above. […]

[1] = tested on: HeLa cervical carcinoma cells; assay: Cytotoxicity, alamarBlue assay, HeLa; assay type: cell-based, human; conditions: selectivity index from EC50 values
Method: as §1, with “S14). […]” for “S14).”
(§2) Cell culture reagents were purchased from Thermo Fisher Scientific (Waltham, MA, USA) and used as-is. The Dulbecco’s Minimal Essential Medium (DMEM) formulation contained either high glucose (4.5 g/L, catalogue number: 10569) or low glucose (1 g/L, catalogue number:
(§3) 10567). RPMI-1640 was provided without sodium pyruvate and with L-glutamine (catalogue number: 11875). Phosphate Buffered Saline (PBS) contained NaCl (9 g/L), KH2PO4 (144 mg/L) and Na2HPO4-7.H2O (795 mg/L, catalogue number: 10010049). TrypLE Express™ was provided with EDTA (458 mg/L) and without Phenol Red (catalogue number: 12604021).
MRC-5 cells (human lung fibroblasts) were grown in monolayer (37 °C, 5 % CO2 and 100 % humidity) in DMEM medium (1 g/L glucose), supplemented with 10% heat-inactivated Fetal Bovine Serum (hiFBS), 2 mM L-glutamine, 100 U / mL penicillin and […] streptomycin. HeLa (Human cervical carcinoma cell line) cells were maintained at 37 °C and 5 % CO2 in high glucose DMEM (4.5 g / L) supplemented with 10% hiFBS, 100 U / ml penicillin, […] streptomycin, 2 mM L-glutamine and non-essential aminoacids (1X).
(§4) Cells were cultured according to ATCC recommendations and were used for the experiments while in the exponential growth phase. […]
(§5) Cytotoxicity was measured through the alamarBlue® assay (Thermo Fisher Scientific).[S6,S13] Briefly, 5×10^3 MRC-5 or HeLa cells were seeded in 96-wells plates (100 µL / well) in the presence of increasing concentrations of compound. […] The plate was incubated at 37 °C for an extra hour and then analysed by fluorescence with an Infinite F200 plate reader (TECAN Austria, GmbH). […] The results are expressed as the concentration of compound that reduces

[2] = tested on: telo23-K+ (hybrid type human telomeric G4); assay: UV-Vis titration, telo23-K+; assay type: binding; conditions: ratio of Ka
Method: To obtain quantitative information on the binding of NDI 1 and PDI 3 to the previously assessed G4 and duplex DNA structures, ultraviolet‐visible absorbance spectroscopy (UV‐Vis) titrations were conducted (Figure 3 and S10). In all cases the ligand concentration was kept constant at 10 μM, whilst oligonucleotide was titrated in up to a final concentration of 30 μM. The observed binding isotherms were fitted to an independent/equivalent sites binding model, and binding constants (K a) were determined. […]
telo22-Na+ (antiparallel basket […]
telo23 and telo22 were selected as models for the human telomeric G-quadruplex under K+ and Na+ conditions, respectively, as they have been the subject of detailed structural studies,[S8,S9] […]
used. telo23 forms primarily a (3+1) hybrid structure under K+ conditions,[S8] whilst telo22 forms a single antiparallel fold.[S9]
The oligonucleotides were at a concentration of 5 µM and the buffers used were either potassium phosphate (100 mM, pH 7.4) for telo23-K+, EBR1-K+ and ds26-K+ or sodium phosphate (100 mM, pH 7.4) for telo22-Na+. The reported spectrum for each sample represents the average of 3 scans and is baseline corrected for the buffer used. Data processing was carried out using Prism 7 (GraphPad Software) with a 4-point second order smoothing polynomial applied to all spectra. Observed ellipticities were converted to molar ellipticity.
UV-Visible Absorbance Spectroscopy
Absorbance spectra were recorded on a Cary 60 UV-Visible (UV-Vis) spectrophotometer using a room-light immune fibre optic probe with 10 mm path length. The UV-Vis spectra were […]
were corrected for background and buffer absorbance. The oligonucleotides and buffer conditions were the same as employed in the CD experiments.
In the titrations, the concentration of ligand was fixed at 10 µM in an initial volume of 500 µL.
Aliquots of oligonucleotide were added using a microsyringe from a 100 µM stock solution in appropriate buffer containing also 10 µM ligand to maintain constant ligand concentration. […]

T. brucei [3] = assay: Trypanocidal activity, alamarBlue assay; assay type: cell-based; conditions: selectivity index from EC50 values
Method: as §1, with “S14). […]” for “S14).”
as §2, §3
MRC-5 cells (human lung fibroblasts) were grown in monolayer (37 °C, 5 % CO2 and 100 % humidity) in DMEM medium (1 g/L glucose), supplemented with 10% heat-inactivated Fetal Bovine Serum (hiFBS), 2 mM L-glutamine, 100 U / mL penicillin and […]
streptomycin. […]
as §4
hiFBS. Parasites were split every other day and maintained in their experimental growth phase (below 2 million parasites per mL).
as §5

T. brucei [4] = tested on: T. brucei; design: method as in earlier work; conditions: typical G4 interactive compounds; ref 6b; cited from earlier work

Structure (SMILES)	SI (MRC5/ L. major) (L. major)	SI (MRC5/HeLa) [1]	selectivity for telo23-K+ G4 over EBR1-K+ G4 [2]	selectivity for telo23-K+ G4 over ds26-K+ duplex [2]	selectivity for telo23-K+ G4 over telo22-Na+ G4 [2]	SI (MRC5/T. brucei) (T. brucei [3])	selectivity index (SI) T. brucei over MRC5 (T. brucei [4])
CN1CCN(CCCN2C(=O)c3ccc4c5c(ccc(c35)C2=O)C(=O)N(CCCN2CCN(C)CC2)C4=O)CC1 [Compound 1]	8.3	10	3 fold	6 fold	100 fold	6.4	–
CN1CCN(CCCN2C(=O)c3ccc(Oc4ccc(C(C)(C)c5ccc(Oc6ccc7c(c6)C(=O)N(CCCN6CCN(C)CC6)C7=O)cc5)cc4)cc3C2=O)CC1 [Compound 9]	–	3.0	–	–	–	2.7	–
CN1CCN(CCCNC(=O)c2ccc(Oc3ccc(C(C)(C)c4ccc(Oc5ccc(C(=O)NCCCN6CCN(C)CC6)c(C(=O)NCCCN6CCN(C)CC6)c5)cc4)cc3)cc2C(=O)NCCCN2CCN(C)CC2)CC1 [Compound 11]	3.2	4.2	–	–	–	21	–
NCCOc1cc(C(=O)Nc2cc(OCCN)c3ccccc3n2)nc(C(=O)Nc2cc(OCCN)c3ccccc3n2)c1 [Pyridostatin, reference compound]	–	–	–	–	–	–	0.7
